Source: ChEMBL document CHEMBL2413000, “Control of the intracellular levels of prostaglandin E₂ through inhibition of the 15-hydroxyprostaglandin dehydrogenase for wound healing” (Bioorg Med Chem, 2013)

Target: T1, 15-hydroxyprostaglandin dehydrogenase [NAD(+)] (Homo sapiens, UniProt P15428)
T1 sequence (P15428 whole entry): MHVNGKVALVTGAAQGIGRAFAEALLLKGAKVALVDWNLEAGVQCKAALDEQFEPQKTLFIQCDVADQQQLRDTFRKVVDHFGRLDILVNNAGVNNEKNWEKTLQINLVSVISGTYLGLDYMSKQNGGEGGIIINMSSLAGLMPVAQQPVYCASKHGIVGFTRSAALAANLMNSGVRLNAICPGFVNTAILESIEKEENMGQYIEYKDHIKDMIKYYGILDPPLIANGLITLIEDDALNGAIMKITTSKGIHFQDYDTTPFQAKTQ
Assay: Inhibition of human GST-fused 15-PGDH expressed in Escherichia coli BL21 using PGE2 as substrate assessed as formation of NADH by fluorescence spectrophotometric analysis
Outline: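 GST-tagged 15-PGDH from pGEX-2T in E. coli BL-21 LysS, IPTG-induced 12 h at 25 °C, glutathione-Sepharose purified. NADH formation read fluorometrically (excitation 340 nm, emission 468 nm) against an NADH standard curve. Triplicates per concentration; IC50 derived.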

`O=C1N=C(O)S/C1=C\c1ccc(OCCN2CCS(=O)(=O)CC2)c(Cl)c1` was tested, and the IC50 was 0.223 µM.
